In patent publication US20230234957A1, “PROTEIN TAG TO INDUCE LIGAND DEPENDENT DEGRADATION OF PROTEIN/PROTEIN-FUSIONS” (DANA-FARBER CANCER INSTITUTE, INC., priority 2020, published 2023):

What was measured:
[1] = target: T1, BRD4BD1L94V-EGFP (Homo sapiens, UniProt O60885, L94V); test: Dual reporter line simultaneous degradation, Acumen EGFP/mCherry read at 5 h; format: cell-based
[2] = target: T1, BRD4BD1L94V-EGFP; test: Cellular degradation EGFP/mCherry reporter assay (Acumen) in Flp293T cells; details: for DC50: read-out: DC50,6h
[3] = system: HiBit-FKBP12 F36V-KRAS G12C; test: Dual reporter line simultaneous degradation, Nano-Glo HiBit lytic assay at 7 h

SMILES | degradation of BRD4BD1L94V [2] | DC50 [2] | Fold selectivity BRD4 BD1/BD1 L94V [2] | further results
COc1ccc2c(c1)C(c1ccc(Cl)cc1)=N[C@@H]([C@@H](C)C(=O)NCCCCCNC(=O)COc1cccc3c1C(=O)N(C1CCC(=O)NC1=O)C3=O)c1nnc(C)n1-2 (stereo partly drawn) [Compound 1, (2R)-2-((4S)-6-(4-chlorophenyl)-8-methoxy-1-methyl-4H-benzo[f][1,2,4]triazolo [4,3-a][1,4]diazepin-4-yl)-N-(5-(2-((2-(2,6-dioxopiperidin-3-yl)-1,3-dioxoisoindolin-4-yl)oxy)acetamido)pentyl)propanamide] | able to potently degrade | 0.01 µM |  | degradation of BRD4BD1L94V-EGFP, effect of addition of dTAG^v-1 ([1]; addition of 100 nM dTAG^v-1, more apparent with 1 μM): enhanced; degradation of BRD4BD1L94V-EGFP, effect of co-treatment with dTAG13 ([1]; presence or absence of dTAG13 at 1 μM, 5 h): only marginally affecting; degradation of BRD4BD1L94V-EGFP, effect of dTAG^v-1-neg ([1]; with degradation-inactive negative control dTAG^v-1-neg): The same effect was also observed; cross-degradation of the HiBit-FKBP12 F36V-KRAS G12C reporter [3]: did not show cross-degradation of the reporters
COc1ccc2c(c1)C(c1ccc(Cl)cc1)=N[C@@H]([C@@H](C)C(=O)NCCCCCCCNC(=O)COc1cccc3c1C(=O)N(C1CCC(=O)NC1=O)C3=O)c1nnc(C)n1-2 (stereo partly drawn) [Compound 2, (2R)-2-((4S)-6-(4-chlorophenyl)-8-methoxy-1-methyl-4H-benzo[f][1,2,4]triazolo[4,3-a][1,4]diazepin-4-yl)-N-(7-(2-((2-(2,6-dioxopiperidin-3-yl)-1,3-dioxoisoindolin-4-yl)oxy)acetamido)heptyl)propanamide] |  | 0.0061 ± 0.0009 µM | >1,600 fold | 
COc1ccc2c(c1)C(c1ccc(Cl)cc1)=N[C@@H]([C@@H](C)C(=O)NCCCCCCCCCNC(=O)COc1cccc3c1C(=O)N(C1CCC(=O)NC1=O)C3=O)c1nnc(C)n1-2 (stereo partly drawn) [Compound 3, (2R)-2-((4S)-6-(4-chlorophenyl)-8-methoxy-1-methyl-4H-benzo[f][1,2,4]triazolo[4,3-α][1,4]diazepin-4-yl)-N-(9-(2-((2-(2,6-dioxopiperidin-3-yl)-1,3-dioxoisoindolin-4-yl)oxy)acetamido)nonyl)propanamide] |  | 0.004 ± 0.001 µM | 460 fold | 
COc1ccc2c(c1)C(c1ccc(Cl)cc1)=N[C@@H]([C@@H](C)C(=O)NCCOCCNC(=O)COc1cccc3c1C(=O)N(C1CCC(=O)NC1=O)C3=O)c1nnc(C)n1-2 (stereo partly drawn) [Compound 4, (2R)-2-((4S)-6-(4-chlorophenyl)-8-methoxy-1-methyl-4H-benzo[f][1,2,4]triazolo[4,3-α][1,4]diazepin-4-yl)-N-(2-(2-(2-((2-(2,6-dioxopiperidin-3-yl)-1,3-dioxoisoindolin-4-yl)oxy)acetamido)ethoxy)ethyl)propanamide] |  | 0.112 ± 0.02 µM | >89 fold | 
COc1ccc2c(c1)C(c1ccc(Cl)cc1)=N[C@@H]([C@@H](C)C(=O)NCCOCCOCCNC(=O)COc1cccc3c1C(=O)N(C1CCC(=O)NC1=O)C3=O)c1nnc(C)n1-2 (stereo partly drawn) [Compound 5, (2R)-2-((4S)-6-(4-chlorophenyl)-8-methoxy-1-methyl-4H-benzo[f][1,2,4]triazolo [4,3-α][1,4]diazepin-4-yl)-N-(2-(2-(2-(2-((2-(2,6-dioxopiperidin-3-yl)-1,3-dioxoisoindolin-4-yl)oxy)acetamido)ethoxy)ethoxy)ethyl) propanamide] | able to potently degrade | 0.04 ± 0.01 µM |  | dTAG BRD4BD1 L94V degraded [2]: ~75%
CC[C@H](C(=O)N1CCCC[C@H]1C(=O)O[C@H](CCc1ccc(OC)c(OC)c1)c1ccccc1OCC(=O)NCCCCCCOc1cccc2c1C(=O)N(C1CCC(=O)NC1=O)C2=O)c1cc(OC)c(OC)c(OC)c1 (some centres unmarked) [dTAG13, reference compound] |  |  |  | cross-degradation of the BRD4BD1L94V-EGFP reporter ([1]; 5 h): did not show cross-degradation of the reporters; degradation of HiBit-FKBP12 F36V-KRAS G12C fusion, effect of co-treatment with bifunctional compound 1 ([3]; presence of 1 μM of bifunctional compound 1): had no effect
